{"source": "patent US20150150960A1", "about": "“PROTECTION AGAINST DENGUE VIRUS AND PREVENTION OF SEVERE DENGUE DISEASE” (priority 2010, published 2015)", "test_system": "PBMC of DENV seropositive human donors", "type": "cell-based", "details": "ex vivo IFNγ ELISPOT", "key": {"[1]": {"details": "allele A*0201, Sri Lankan donors"}, "[2]": {"details": "allele B*3501, Sri Lankan donors"}, "[3]": {"details": "allele B*4001, Sri Lankan donors"}, "[4]": {"details": "allele B*5801, Sri Lankan donors"}, "[5]": {"details": "allele A*1101, Sri Lankan donors"}}, "note": "Read-outs that look alike come from different tables or passages of the source."}
{"molecule": "CSCC[C@H](NC(=O)[C@@H](NC(=O)[C@H](Cc1c[nH]cn1)NC(=O)[C@H](Cc1ccccc1)NC(=O)[C@@H](NC(=O)CNC(=O)[C@H](CCC(=O)O)NC(=O)[C@@H](N)CCSC)C(C)C)[C@@H](C)O)C(=O)N[C@@H](Cc1c[nH]c2ccccc12)C(=O)O", "values": [{"measurement": "T cell response [SFC]", "setting": "allele B*4403, Sri Lankan donors", "value": 68, "unit": "SFC"}]}
{"molecule": "CC(C)C[C@H](NC(=O)[C@H](C)NC(=O)[C@H](CCC(=O)O)NC(=O)[C@H](Cc1ccccc1)NC(=O)[C@H](CCC(=O)O)NC(=O)[C@H](CC(C)C)NC(=O)[C@H](Cc1ccccc1)NC(=O)[C@@H](N)CCCNC(=N)N)C(=O)NCC(=O)N[C@@H](Cc1ccccc1)C(=O)O", "values": [{"measurement": "T cell response [SFC]", "setting": "human donors, allele A*2402", "value": 37, "unit": "SFC"}]}
{"molecule": "CSCC[C@H](NC(=O)[C@H](CC(C)C)NC(=O)[C@@H](N)CCC(=O)O)C(=O)N[C@@H](CCCNC(=N)N)C(=O)N[C@@H](CCCNC(=N)N)C(=O)NCC(=O)N[C@@H](CC(=O)O)C(=O)N[C@@H](CC(C)C)C(=O)N1CCC[C@H]1C(=O)N[C@H](C(=O)O)C(C)C", "values": [{"measurement": "T cell response [SFC]", "setting": "[1]", "value": 28, "unit": "SFC"}]}
{"molecule": "CSCC[C@H](NC(=O)[C@@H](NC(=O)[C@H](CCSC)NC(=O)[C@H](CO)NC(=O)[C@@H]1CCCN1C(=O)[C@@H](NC(=O)[C@@H](NC(=O)[C@H](CC(C)C)NC(=O)[C@@H](N)CCSC)C(C)C)[C@@H](C)O)[C@@H](C)O)C(=O)O", "values": [{"measurement": "T cell response [SFC]", "setting": "[2]", "value": 115, "unit": "SFC"}]}
{"molecule": "CC[C@H](C)[C@H](NC(=O)[C@@H]1CCCN1C(=O)[C@@H](NC(=O)[C@H](CO)NC(=O)[C@@H](NC(=O)[C@@H]1CCCN1C(=O)[C@@H](N)Cc1ccccc1)C(C)C)[C@@H](C)CC)C(=O)N[C@H](C(=O)N[C@@H](C)C(=O)N[C@@H](C)C(=O)O)[C@@H](C)O", "values": [{"measurement": "T cell response [SFC]", "setting": "[2]", "value": 35, "unit": "SFC"}]}
{"molecule": "CSCC[C@H](NC(=O)[C@H](C)NC(=O)CNC(=O)[C@H](CCC(=O)O)NC(=O)[C@@H](N)CCC(N)=O)C(=O)N[C@@H](Cc1c[nH]cn1)C(=O)N[C@@H](CO)C(=O)N[C@@H](C)C(=O)N[C@@H](CC(C)C)C(=O)O", "note": "[QEGAMHSAL]", "values": [{"measurement": "T cell response [SFC]", "setting": "[3]", "value": 22, "unit": "SFC"}]}
{"molecule": "CSCC[C@H](NC(=O)[C@H](CCSC)NC(=O)[C@@H](N)CC(C)C)C(=O)N[C@@H](CCSC)C(=O)N[C@@H](CC(C)C)C(=O)N1CCC[C@H]1C(=O)N[C@@H](C)C(=O)N[C@H](C(=O)N[C@@H](CC(C)C)C(=O)O)[C@@H](C)O", "values": [{"measurement": "T cell response [SFC]", "setting": "[1]", "value": 78, "unit": "SFC"}]}
{"molecule": "CC[C@H](C)[C@H](NC(=O)[C@H](CC(=O)O)NC(=O)[C@H](CC(=O)O)NC(=O)[C@H](CCC(=O)O)NC(=O)[C@@H](NC(=O)[C@H](CCC(=O)O)NC(=O)[C@@H]1CCCN1C(=O)[C@@H](N)CC(N)=O)[C@@H](C)CC)C(=O)N[C@@H](Cc1ccccc1)C(=O)O", "values": [{"measurement": "T cell response [SFC]", "setting": "[2]", "value": 110, "unit": "SFC"}]}
{"molecule": "CSCC[C@H](NC(=O)[C@H](CCSC)NC(=O)[C@H](CC(C)C)NC(=O)[C@@H](N)CS)C(=O)N[C@@H](CCSC)C(=O)N[C@@H](CC(C)C)C(=O)N1CCC[C@H]1C(=O)N[C@@H](C)C(=O)N[C@H](C(=O)N[C@@H](CC(C)C)C(=O)O)[C@@H](C)O", "values": [{"measurement": "T cell response [SFC]", "setting": "[1]", "value": 63, "unit": "SFC"}]}
{"molecule": "CC[C@H](C)[C@H](NC(=O)[C@H](Cc1ccc(O)cc1)NC(=O)CNC(=O)[C@H](CCCNC(=N)N)NC(=O)[C@H](C)NC(=O)[C@H](C)NC(=O)[C@@H](NC(=O)[C@H](CO)NC(=O)[C@H](C)NC(=O)[C@@H]1CCCN1)[C@@H](C)CC)C(=O)O", "values": [{"measurement": "T cell response [SFC]", "setting": "[4]", "value": 140, "unit": "SFC"}]}
{"molecule": "CC[C@H](C)[C@H](NC(=O)[C@H](C)NC(=O)[C@H](CC(C)C)NC(=O)[C@H](CC(C)C)NC(=O)[C@@H]1CCCN1C(=O)[C@@H](N)C(C)C)C(=O)NCC(=O)N[C@@H](CS)C(=O)N[C@@H](Cc1ccc(O)cc1)C(=O)O", "values": [{"measurement": "T cell response [SFC]", "setting": "[2]", "value": 213, "unit": "SFC"}]}
{"molecule": "CC[C@H](C)[C@H](NC(=O)[C@@H](NC(=O)[C@H](CC(=O)O)NC(=O)[C@H](CCSC)NC(=O)[C@@H](NC(=O)[C@H](C)NC(=O)CNC(=O)[C@H](CCCCN)NC(=O)[C@@H]1CCCN1C(=O)[C@@H](N)[C@@H](C)O)C(C)C)[C@@H](C)CC)C(=O)O", "values": [{"measurement": "T cell response [SFC]", "setting": "human donors, allele B*0702", "value": 422, "unit": "SFC"}]}
{"molecule": "CSCC[C@H](NC(=O)[C@@H](NC(=O)[C@H](Cc1ccc(O)cc1)NC(=O)[C@H](CO)NC(=O)[C@@H](N)CCSC)[C@@H](C)O)C(=O)N[C@@H](CS)C(=O)N[C@@H](CO)C(=O)NCC(=O)N[C@@H](CCCCN)C(=O)O", "values": [{"measurement": "T cell response [SFC]", "setting": "[5]", "value": 48, "unit": "SFC"}]}
{"molecule": "CC(C)C[C@H](NC(=O)[C@H](CCCNC(=N)N)NC(=O)[C@H](Cc1ccccc1)NC(=O)[C@H](CCC(=O)O)NC(=O)CN)C(=O)N[C@@H](CCCNC(=N)N)C(=O)NCC(=O)N[C@@H](CCC(=O)O)C(=O)N[C@@H](CCC(N)=O)C(=O)N[C@@H](CCCNC(=N)N)C(=O)O", "values": [{"measurement": "T cell response [SFC]", "setting": "[3]", "value": 273, "unit": "SFC"}]}
{"molecule": "CC(C)C[C@H](NC(=O)[C@@H](NC(=O)[C@@H](NC(=O)[C@H](CC(C)C)NC(=O)[C@@H]1CCCN1C(=O)CNC(=O)[C@@H](NC(=O)[C@H](C)N)[C@@H](C)O)[C@@H](C)O)[C@@H](C)O)C(=O)N[C@@H](Cc1c[nH]c2ccccc12)C(=O)O", "values": [{"measurement": "T cell response [SFC]", "setting": "[4]", "value": 350, "unit": "SFC"}]}
{"molecule": "CC[C@H](C)[C@H](NC(=O)[C@H](CC(C)C)NC(=O)[C@H](C)NC(=O)[C@H](CC(C)C)NC(=O)[C@H](CC(C)C)NC(=O)[C@@H](N)CCSC)C(=O)N[C@@H](C)C(=O)N[C@H](C(=O)N[C@@H](CC(C)C)C(=O)O)C(C)C", "values": [{"measurement": "T cell response [SFC]", "setting": "[1]", "value": 85, "unit": "SFC"}]}
{"molecule": "CC(C)C[C@H](NC(=O)[C@H](Cc1c[nH]c2ccccc12)NC(=O)[C@@H](NC(=O)[C@@H]1CCCN1C(=O)[C@@H](N)CC(C)C)C(C)C)C(=O)N[C@@H](C)C(=O)N[C@@H](Cc1ccc(O)cc1)C(=O)N[C@@H](CCCCN)C(=O)N[C@H](C(=O)N[C@@H](C)C(=O)O)C(C)C", "values": [{"measurement": "T cell response [SFC]", "setting": "[2]", "value": 27, "unit": "SFC"}]}
{"molecule": "CC(C)[C@H](NC(=O)[C@H](C)NC(=O)[C@H](C)NC(=O)[C@@H](N)CCCNC(=N)N)C(=O)N[C@@H](CCC(=O)O)C(=O)N[C@@H](CC(=O)O)C(=O)N[C@@H](CCC(=O)O)C(=O)N[C@@H](CCC(=O)O)C(=O)N[C@@H](Cc1ccccc1)C(=O)O", "values": [{"measurement": "T cell response [SFC]", "setting": "human donors, allele B*5801", "value": 87, "unit": "SFC"}]}
{"molecule": "CC[C@H](C)[C@H](NC(=O)[C@H](C)NC(=O)CNC(=O)[C@@H](N)Cc1ccccc1)C(=O)N[C@@H](Cc1ccc(O)cc1)C(=O)NCC(=O)N[C@@H](C)C(=O)N[C@@H](C)C(=O)N[C@@H](Cc1ccccc1)C(=O)O", "values": [{"measurement": "T cell response [SFC]", "setting": "[2]", "value": 28, "unit": "SFC"}]}
{"molecule": "CC[C@H](C)[C@H](NC(=O)[C@H](C)NC(=O)CNC(=O)[C@H](CO)NC(=O)[C@@H](N)CCCCN)C(=O)N[C@@H](CCCCN)C(=O)N[C@H](C(=O)N[C@@H](CC(C)C)C(=O)N[C@@H](CCCCN)C(=O)O)C(C)C", "values": [{"measurement": "T cell response [SFC]", "setting": "[5]", "value": 823, "unit": "SFC"}]}
{"molecule": "CC(C)C[C@H](NC(=O)[C@H](CCCCN)NC(=O)[C@@H](NC(=O)[C@H](CCCCN)NC(=O)[C@@H]1CCCN1C(=O)[C@@H](N)Cc1ccc(O)cc1)[C@@H](C)O)C(=O)N[C@H](C(=O)N[C@@H](CC(=O)O)C(=O)N[C@@H](Cc1c[nH]c2ccccc12)C(=O)N[C@@H](CC(=O)O)C(=O)O)[C@@H](C)O", "values": [{"measurement": "T cell response [SFC]", "setting": "[2]", "value": 267, "unit": "SFC"}]}
{"molecule": "CSCC[C@H](N)C(=O)N[C@H](C(=O)N[C@@H](CO)C(=O)N[C@@H](CCCNC(=N)N)C(=O)N[C@@H](CC(C)C)C(=O)N[C@@H](CC(C)C)C(=O)N[C@@H](CC(C)C)C(=O)N[C@@H](CC(N)=O)C(=O)N[C@@H](CCCNC(=N)N)C(=O)O)C(C)C", "values": [{"measurement": "T cell response [SFC]", "setting": "human donors, allele A*1101", "value": 992, "unit": "SFC"}]}
{"molecule": "CC(C)[C@H](NC(=O)[C@H](CCCNC(=N)N)NC(=O)[C@H](CCC(N)=O)NC(=O)[C@H](CCC(N)=O)NC(=O)CNC(=O)[C@H](Cc1ccccc1)NC(=O)[C@@H]1CCCN1C(=O)[C@@H](N)[C@@H](C)O)C(=O)N[C@@H](Cc1ccccc1)C(=O)O", "values": [{"measurement": "T cell response [SFC]", "setting": "human donors, allele B*3501", "value": 48, "unit": "SFC"}]}
{"molecule": "CC[C@H](C)[C@H](NC(=O)[C@H](CC(C)C)NC(=O)[C@H](C)NC(=O)[C@H](CC(C)C)NC(=O)[C@H](CC(C)C)NC(=O)[C@H](CCSC)NC(=O)[C@@H](N)CC(C)C)C(=O)N[C@@H](C)C(=O)N[C@H](C(=O)N[C@@H](CC(C)C)C(=O)O)C(C)C", "values": [{"measurement": "T cell response [SFC]", "setting": "[1]", "value": 63, "unit": "SFC"}]}
